Data reported in patent publication US7642280B2, “Inhibitors of acyl glucosaminyl inositol amidase and methods of use” (The Regents of the University of California, priority 2001, dated 2010).

The chains behind the UniProt entries cited, without tags or fusion partners. Where a name states a change or a piece, a line headed by the entry shows the natural chain unless it says otherwise.
UniProt A0R2W9: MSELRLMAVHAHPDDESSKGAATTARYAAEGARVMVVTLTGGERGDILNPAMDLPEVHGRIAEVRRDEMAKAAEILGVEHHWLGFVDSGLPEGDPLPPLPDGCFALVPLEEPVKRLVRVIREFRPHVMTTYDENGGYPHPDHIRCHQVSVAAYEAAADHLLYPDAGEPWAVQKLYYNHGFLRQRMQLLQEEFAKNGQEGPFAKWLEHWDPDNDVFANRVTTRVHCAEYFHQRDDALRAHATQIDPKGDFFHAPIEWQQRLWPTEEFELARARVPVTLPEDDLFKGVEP

Target: Mycobacterium smegmatis mycothiol-S-conjugate amidase (MCA) (Mycolicibacterium smegmatis, UniProt A0R2W9)
Assay: Fluorescence-based HPLC IC50 assay, wild type M. smegmatis MCA with natural MSmB
Assay type: biochemical
Settings: wild type M. smegmatis MCA approx. 20 nM, 30 μM natural MSmB, 20 min, 31° C.; read-out: IC50 M. smeg

## oceanapiside aglycon [Compound 8]
  IC50: 5 µM
